According to article PMC8522752 (Antimicrobial Agents and Chemotherapy, 2021):

Details: male, human, pbmc

C[C@@]1(F)[C@H](O)[C@@H](COP(=O)(O)OP(=O)(O)OP(=O)(O)O)O[C@H]1n1cnc2c(=O)[nH]c(N)nc21 [AT-9010]
half-life at 10 μM: 22 h
